Where “and” joins values, the source holds several entries; their conditions need not be identical. Identical values can stand only once. Like-named read-outs stand apart in the source and are kept apart here.
Tests used:
rat = settings: applied alone
[1] = test system: male albino rats (Sprague Dawley); settings: alone, 0.00464 mg/kg i.v., n = 10, Mean SEM

Question: Which “timepoint of peak effect” value (rat) does the source give for CN(C)[C@]1(c2ccccc2)CC[C@]2(CC1)OCCc1c3cc(F)ccc3[nH]c12 here?
Answer: The value was 15 min p. appl.

Question: What about the “ED50 (95% CI)” value (rat; i.v., 15 min p. appl. (peak effect)) of the same compound?
Answer: Its value is 3.364 (2.896-3.815) μg/kg and 3.36 μg/kg.

Question: And the “% MPE (Maximum possible effect)” value ([1]; 30 min. post administration)?
Answer: The value was 12.2 ± 2.69 % MPE.

Question: What about the “% MPE (Maximum possible effect)” value ([1]; 60 min. post administration) of the same compound?
Answer: Its value is 10.6 ± 3.51 % MPE.

Question: And the “% MPE (Maximum possible effect)” value ([1]; 90 min. post administration)?
Answer: The value was 2.88 ± 2.27 % MPE.

Source: US11311504B2 (priority 2012, dated 2022)
